Test results published in article PMC5894102 (Journal of medicinal chemistry, 2017).

Assays:
in vitro [1] = conditions: human, A673 cells
in vitro [2] = conditions: human, MiaPaCa-2 cells
A673 cells [3] = assay: cells; conditions: Homo sapiens
A673 cells [4] = conditions: Figure 5D
MiaPaCa-2 cells [5] = conditions: Figure 5C
MiaPaCa-2 cells [6] = assay: cells; conditions: Homo sapiens, MIA PaCa-2, 2 h, read-out: MiaPaCa-2 cells Lactate inh. IC50 ± SD
[7] = A673, read-out: inhibition of lactate production IC50

## NS(=O)(=O)c1ccc(Cc2c(-c3ccccc3)nn(-c3nc(C(=O)O)cs3)c2C2CC2)cc1 [Analog 58]
In vitro [1]
  IC50 at 48 h: > 57 µM
In vitro [2]
  IC50 at 48 h: > 57 µM

## NS(=O)(=O)c1ccc(Cc2cn(-c3nc(C(=O)O)cs3)nc2-c2ccccc2)cc1 [Analog 43]
In vitro [1]
  IC50 at 48 h: > 57 µM
In vitro [2]
  IC50 at 48 h: > 57 µM

## NS(=O)(=O)c1ccc(Oc2c(-c3cccc(-c4ccccc4)c3)nn(-c3nc(C(=O)O)cs3)c2C2CC2)cc1 [Analog 60]
A673 cells [3]; [7]
  IC50: < 4 µM

## Nc1c(Cc2ccc(S(N)(=O)=O)cc2)c(-c2cccc(-c3ccccc3)c2)nn1-c1nc(C(=O)O)cs1 [Analog 56]
In vitro [1]
  IC50 at 48 h: > 57 µM
In vitro [2]
  IC50 at 48 h: > 57 µM

## O=C1N[C@](c2ccc(N3CCOCC3)cc2)(c2ccsc2)CC(O)=C1Sc1ccccc1Cl [Analog 3]
A673 cells [4]
  long-term growth inhibition activity (AUC analysis): single digit μM
MiaPaCa-2 cells [5]
  long-term growth inhibition activity (AUC analysis): single digit μM
MiaPaCa-2 cells [6]
  IC50: 0.877 ± 0.059 µM

## NS(=O)(=O)c1ccc(Cc2c(-c3cccc(-c4ccccc4)c3)nn(-c3nc(C(=O)O)cs3)c2CC2CC2)cc1 [Analog 63]
A673 cells [4]
  long-term growth inhibition activity (AUC analysis): single digit μM
MiaPaCa-2 cells [5]
  long-term growth inhibition activity (AUC analysis): single digit μM
A673 cells [3]; A673, 2 h, read-out: A673 cells Lactate inh. IC50 ± SD
  IC50: 0.517 ± 0.088 µM
A673 cells [3]; [7]
  IC50: < 4 µM

Read-outs that look alike come from different tables or passages of the source.
